{"source": "patent US9751837B2", "about": "“Kinase inhibitors” (RESPIVERT LIMITED, priority 2014, dated 2017)", "tested_on": "non-mutant kinases", "assay": "KinomeScan Selectivity Scores", "assay_type": "binding", "details": "50 nM", "description": "These assays may be conducted by DiscoverX (formerly Ambit; San Diego, Calif.)."}
{"smiles": "COc1cc(Nc2cc(Oc3ccc(NC(=O)Nc4cc(C(C)(C)C)cc(NS(C)(=O)=O)c4OC)c4ccccc34)ccn2)ccc1P(C)(=O)O", "note": "[Example 44, (4-((4-((4-(3-(5-(tert-Butyl)-2-methoxy-3-(methylsulfonamido)phenyl)ureido)naphthalen-1-yl)oxy)pyridin-2-yl)amino)-2-methoxyphenyl)(methyl)phosphinic acid]", "values": [{"measurement": "KinomeScan Selectivity Score S(1)", "setting": "(non-mutant kinases with % Ctrl <1)/(non-mutant kinases tested)", "result": 0.002}, {"measurement": "KinomeScan Selectivity Score S(10)", "setting": "(non-mutant kinases with % Ctrl <10)/(non-mutant kinases tested)", "result": 0.074}]}
